Patent US7193033B2, “Peptide having appetite stimulating activity” (Takeda Pharmaceutical Company Limited, priority 2001, dated 2007)

Chains of the proteins cited; added tags and fusions are not shown. Lines headed by an entry give the natural chain unless they say otherwise; changes in a name come on top.
UniProt P48146: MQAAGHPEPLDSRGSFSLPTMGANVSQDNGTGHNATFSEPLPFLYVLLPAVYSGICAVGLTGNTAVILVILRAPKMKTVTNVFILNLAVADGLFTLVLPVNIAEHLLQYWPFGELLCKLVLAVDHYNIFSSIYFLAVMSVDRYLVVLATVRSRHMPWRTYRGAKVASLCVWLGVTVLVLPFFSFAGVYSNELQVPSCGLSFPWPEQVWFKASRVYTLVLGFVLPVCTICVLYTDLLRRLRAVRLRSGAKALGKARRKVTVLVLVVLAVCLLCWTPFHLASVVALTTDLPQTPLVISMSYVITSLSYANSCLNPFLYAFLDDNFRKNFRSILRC

How the values were obtained:
blood prolactin level = experiment: Prolactin release promoting activity after intracerebroventricular injection in rats; assay type: in vivo, rat; conditions: Wistar male rats, intracerebroventricular (third ventricle) injection, plasma radioimmunoassay 5-60 min
Description: Wistar male rats (9 weeks old) under pentobarbital anesthesia were inserted with a guide cannula (AG-12) targeted at the third ventricle (AP: −7.1, L: 0.0, H: 2.0 mm). Animals were allowed at least a week of recovery postoperatively before being used in the experiments. During the recovery period, animals were subjected to handling every day to minimize a stress caused by intracerebroventricular injection.
On the day before the experiments, rats under pentobarbital anesthesia were inserted with a cannula into the right jugular vein for blood collection. The test was performed between 9:00 and 12:00. Rats were inserted with a microinjection cannula under unanesthesia and nonrestraint, and were given a PBS solution of the human GPR8 ligand peptide (SEQ ID NO :16) (n=9) obtained in EXAMPLE 12 or PBS alone in a dose of 5 μl/min for 2 minutes. The microinjection cannula was removed 1 minute after completion of the injection and animals were allowed to move freely. Blood was collected by 300 μl each prior to the peptide injection and 5, 10, 20, 30 and 60 minutes after the start of injection. In order to keep the body water content constant, the equal volume of saline was given through the jugular vein after blood collection. […]

GPR8 [1] = molecular target: T1, GPR8 (Homo sapiens, UniProt P48146); experiment: GTPγ S binding promoting activity on GPR8-expressed CHO cell membrane fraction; assay type: biochemical; conditions: various concentrations
T1 construct: expressed in transfected cells
Protocol: The [^35S]-guanosine 5′-(γ-thio)triphosphate binding promoting activity on a GPR8-expressed CHO cell membrane fraction was assayed by the following procedures. First, preparation of the membrane fraction is described. To 1×10^8 of CHO/GPR8 cells was added 10 ml of a homogenate buffer (10 mM NaHCO3, 5 mM EDTA, 0.5 mM PMSF, 1 μg/ml pepstatin, 4 μg/ml E64, 20 μg/ml leupeptin). The mixture was homogenized by using Polytron (12,000 rpm, 1 min.). The cell homogenate was subjected to centrifugation (1,000 g, 15 mins.) to obtain the supernatant. Next, the supernatant was subjected to ultracentrifugation (Beckman type 30 rotor, 30,000 rpm, 1 hour). The resulting precipitate was used as GPR8-expressed CHO cell membrane fraction.
The GTPγ S binding activity was assayed as follows. The GPR8-expressed CHO cell membrane fraction was diluted with a membrane dilution buffer (50 mM Tris-hydrochloride buffer (pH 7.4), 5 mM MgCl2, 150 mM NaCl, 1 μM GDP) to prepare a cell membrane fraction solution for assay having a protein level of […]. To 200 μl of the cell membrane fraction solution for assay were added 2 μl of 51.5 nM [^35S]-guanosine 5′-(γ-thio)triphosphate (NEN Co.) and a sample fluid. […] After washing twice with 1.5 ml of a wash buffer (50 mM Tris-hydrochloride buffer (pH 7.4), 5 mM MgCl2, 1 mM EDTA, 0.1% BSA), radioactivity of the filter was measured with a liquid scintillation counter. […]

GPR8 [2] = molecular target: T1, GPR8; experiment: Intracellular cAMP production suppressing activity in GPR8-expressed CHO cells (forskolin-stimulated); assay type: cell-based; conditions: forskolin-containing reaction buffer
Protocol: The CHL/GPR8 cells produced in EXAMPLE 4 and mock CHO cells were inoculated on a 24-well plate in 5×10^4 cells/well, followed by cultivation for 48 hours. The cells were washed with Hanks' buffer (pH 7.4) containing 0.2 mM 3-isobutyl-methylxanthine, 0.05% BSA and 20 mM HEPES (hereinafter Hanks' buffer (pH 7.4) containing 0.2 mM 3-isobutyl-methylxanthine, 0.05% BSA and 20 mM HEPES is referred to as a reaction buffer). Thereafter, 0.5 ml of the reaction buffer was added to the system, which was kept warm in an incubator for 30 minutes. After the reaction buffer was removed, 0.25 ml of a fresh reaction buffer was added to the cells. Then, 0.25 ml of the reaction buffer containing a sample fluid and 2 μM forskolin was added to the cells followed by reacting at 37° C. for 24 minutes. By adding 100 μl of 20% perchloric acid, the reaction was terminated. The reaction mixture was then allowed to stand on ice for an hour to extract intracellular cAMP. The amount of cAMP in the extract was measured using cAMP EIA kit (Amersham Pharmacia Biotech).
hGPR8L (1–23), which was synthesized in EXAMPLE 12, was brought in contact with the GPR8-expressed CHO cells in various concentrations according to the procedures described in EXAMPLE 5, to assay the intracellular cAMP production suppressing activity. […]

SMILES | Blood prolactin level (in words) (blood prolactin level) | GTPγ S binding promoting activity (in words) (GPR8 [1]) | Intracellular cAMP production suppressing activity (in words) (GPR8 [2])
CSCC[C@H](NC(=O)[C@H](CC(C)C)NC(=O)[C@H](CC(C)C)NC(=O)CNC(=O)[C@H](C)NC(=O)[C@H](C)NC(=O)[C@H](CCCNC(=N)N)NC(=O)CNC(=O)[C@@H](NC(=O)[C@@H](NC(=O)[C@H](Cc1c[nH]cn1)NC(=O)[C@H](Cc1ccc(O)cc1)NC(=O)[C@H](CCCNC(=N)N)NC(=O)[C@@H]1CCCN1C(=O)[C@H](CO)NC(=O)[C@H](C)NC(=O)[C@@H](NC(=O)[C@H](Cc1c[nH]cn1)NC(=O)[C@H](CCCCN)NC(=O)[C@H](Cc1ccc(O)cc1)NC(=O)[C@@H](N)Cc1c[nH]c2ccccc12)C(C)C)[C@@H](C)O)C(C)C)C(=O)NCC(=O)N[C@@H](CC(C)C)C(=O)O [hGPR8L(1–23)] | increased the blood prolactin level | dose-dependently promoted the GTPγ S binding | dose-dependently suppressed the intracellular cAMP production
CSCC[C@H](NC(=O)[C@H](CC(C)C)NC(=O)[C@H](CC(C)C)NC(=O)CNC(=O)[C@H](C)NC(=O)[C@H](C)NC(=O)[C@H](CCCNC(=N)N)NC(=O)CNC(=O)[C@@H](NC(=O)[C@@H](NC(=O)[C@H](Cc1c[nH]cn1)NC(=O)[C@H](Cc1ccc(O)cc1)NC(=O)[C@H](CCCNC(=N)N)NC(=O)[C@@H]1CCCN1C(=O)[C@H](CO)NC(=O)[C@H](C)NC(=O)[C@@H](NC(=O)[C@H](Cc1c[nH]cn1)NC(=O)[C@H](CCCCN)NC(=O)[C@H](Cc1ccc(O)cc1)NC(=O)[C@@H](N)Cc1c[nH]c2ccccc12)C(C)C)[C@@H](C)O)C(C)C)C(=O)NCC(=O)N[C@@H](CC(C)C)C(=O)N[C@@H](CCCNC(=N)N)C(=O)N[C@@H](CCCNC(=N)N)C(=O)N[C@@H](CO)C(=O)N1CCC[C@H]1C(=O)N[C@@H](Cc1ccc(O)cc1)C(=O)N[C@@H](CC(C)C)C(=O)N[C@@H](Cc1c[nH]c2ccccc12)C(=O)O [hGPR8L(1–30)] |  |  | dose-dependently suppressed the intracellular cAMP production
